The text below walks through data of ChEMBL document CHEMBL3997841, “Continued optimization of the M5 NAM ML375: Discovery of VU6008667, an M5 NAM with high CNS penetration and a desired short half-life in rat for addiction studies” (Bioorg Med Chem Lett, 2017).

Protein sequences, listed by entry. Tags and fused reporters are not part of them.
UniProt P08912, whole entry: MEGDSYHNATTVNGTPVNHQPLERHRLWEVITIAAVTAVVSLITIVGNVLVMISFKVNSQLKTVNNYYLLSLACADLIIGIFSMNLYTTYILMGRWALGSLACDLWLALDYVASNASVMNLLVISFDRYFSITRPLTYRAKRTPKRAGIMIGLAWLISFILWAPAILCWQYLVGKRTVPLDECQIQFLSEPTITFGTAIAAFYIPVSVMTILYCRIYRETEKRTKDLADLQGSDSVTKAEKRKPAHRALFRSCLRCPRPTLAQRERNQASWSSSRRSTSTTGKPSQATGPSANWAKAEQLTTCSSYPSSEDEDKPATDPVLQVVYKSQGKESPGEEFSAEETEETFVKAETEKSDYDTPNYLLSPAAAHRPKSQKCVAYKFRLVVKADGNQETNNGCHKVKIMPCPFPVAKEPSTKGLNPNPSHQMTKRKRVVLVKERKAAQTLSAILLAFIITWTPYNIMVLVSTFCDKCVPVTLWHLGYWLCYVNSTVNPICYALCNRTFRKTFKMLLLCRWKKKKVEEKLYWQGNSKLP

The assay deals with Muscarinic acetylcholine receptor M5 (Homo sapiens, UniProt P08912). Briefly: Negative allosteric modulation of human M5 receptor expressed in CHO cells assessed as inhibition of acetyl choline-induced calcium mobilization preincubated for 150 secs followed by acetyl choline addition by Fluo-4-AM dye based fluorescence assay. Type of assay: functional, cell-based. A digest of the protocol:
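Intracellular calcium mobilization in CHO cells stably transfected with human M5 receptor, run in the presence of an ACh EC80 concentration; values are means of at least three independent determinations, each performed in triplicate.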
(In general: A change in cytosolic calcium serves as a functional read-out for many receptors and channels.)

Regarding `CCOC(=O)N1CCN(c2ccc([C@@]34c5ccccc5C(=O)N3CCN4C(=O)c3ccc(F)c(F)c3)cc2)CC1`, the IC50 was 9.49 µM (read-out: IC50) and 8.71 µM (read-out: pIC50 (converted)).
For `N#CC1CCCN(c2ccc([C@@]34c5ccccc5C(=O)N3CCN4C(=O)c3ccc(F)c(F)c3)cc2)C1` (stereo partly specified), the IC50 (read-out: IC50) is 7.29 µM.
As to `CC1CCCN(c2ccc([C@@]34c5ccccc5C(=O)N3CCN4C(=O)c3ccc(F)c(F)c3)cc2)C1` (stereo partly specified), the IC50 (read-out: IC50) came to 4.01 µM.
On to `CN(c1ccc([C@@]23c4ccccc4C(=O)N2CCN3C(=O)c2ccc(F)c(F)c2)cc1)C1CCC1`, for which the IC50 is 1.32 µM (read-out: IC50) and 1.29 µM (read-out: pIC50 (converted)).
